# Legend:
# Sequences of proteins named here, by UniProt entry; tags and fusion partners are left off. A change or cut given only in a name is not applied to a line headed by its entry.
# UniProt P41145: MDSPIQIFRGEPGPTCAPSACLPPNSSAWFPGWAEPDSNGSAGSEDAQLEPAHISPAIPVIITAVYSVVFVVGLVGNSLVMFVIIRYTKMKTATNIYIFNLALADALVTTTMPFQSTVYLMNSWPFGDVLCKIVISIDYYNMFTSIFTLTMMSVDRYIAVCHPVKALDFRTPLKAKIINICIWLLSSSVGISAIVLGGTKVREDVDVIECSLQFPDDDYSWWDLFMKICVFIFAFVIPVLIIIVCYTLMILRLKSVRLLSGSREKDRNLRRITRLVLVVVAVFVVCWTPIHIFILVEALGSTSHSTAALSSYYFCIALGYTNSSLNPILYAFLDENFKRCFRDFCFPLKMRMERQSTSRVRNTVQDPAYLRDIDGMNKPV
# KOR [1] = target: T1, KOR (Homo sapiens, UniProt P41145); assay: High content imaging β-arrestin translocation assay, KOR antagonist (KOR HCS); format: cell-based
# Text: (§1) In this campaign, two assay platforms were employed to evaluate KOR activity and selectivity: the KOR1 DISCOVERX β-Arrestin […] assay and an imaging based β-arrestin translocation assay for confirmatory and selectivity assays. The KOR1 DISCOVERX β-Arrestin […] assay is a commercial platform for direct measurement of GPCR (G protein-coupled receptor) activation by detection of β-Arrestin binding to the KOR. […] In cells that stably express these fusion proteins, ligand stimulation results in the recruitment of β-Arrestin by the GPCR. This interaction encourages the complementation of the two β-galactosidase fragments resulting in the formation of a functional enzyme that converts substrate in the assay medium to a detectable signal. […]
# (§2) Initially, a portion (approximately 290,000 compounds) of the MLSMR compound collection was tested in the KOR1 DISCOVERX β-arrestin primary kappa opioid (KOP) agonist and antagonist screens (PUBCHEM AID 1777 and 1778, respectively) at a single concentration point (10 μM). […] The KOR:DOR:MOR selectivity of the compounds was determined using the analogous β-arrestin translocation assays for the DOR (PUBCHEM AID 2370 and 2357, for agonists and antagonist, respectively) and the MOR (PUBCHEM AID 2352 and 2420, for agonists and antagonists, respectively).
# KOP receptor [2] = target: T2, KOP receptor (Homo sapiens, UniProt P41145); assay: ERK 1/2 activation, inhibition; format: cell-based
# KOR [3] = target: T1, KOR; assay: KOR1 DISCOVERX β-Arrestin […] assay, antagonist mode (KOR DRX); format: cell-based; conditions: estimate; read-out: IC50 inhibition of KOR response to dynorphin A (DISCOVERX)
# Text: as §1, §2
# KOR [4] = target: T1, KOR; assay: PDSP radioligand binding assay; conditions: Table 5
# Method: The compound was initially screened in radioligand binding assays at a constant concentration (10 μM) to identify possible activity of the compound. Results showing significant activity in the initial screen were selected for Ki determinations.
# As a representative of the Chemotype II series, the MLPCN probe molecule 2{8} was subjected to a binding assay panel of 44 GPCR and other molecular targets by the Pyschoactive Drug Screening Program (PDSP) (Table 10). The compound was initially screened in a radioligand binding assay at a constant concentration (10 μM) to identify possible activity of the compound. Results showing significant activity in the initial screen were selected for Ki determinations.
# KOP receptor [5] = target: T2, KOP receptor; assay: 35S-GTPγS coupling, inhibition; format: biochemical
# physchem = conditions: 23 °C, pH 7.4, aqueous buffer
# Method: In addition to profiling the selectivity of this class of KOR ligands, basic pharmacological properties were assessed.
smiles,measurement,setting,value
"COc1ccc(N2CCN(CCCNC(=O)Cn3c(=O)c4cccn4c4c(C)ccnc43)CC2)cc1 [Compound 1{3}, N-(3-(4-(4-Methoxyphenyl)piperazin-1-yl)propyl)-2-(1-methyl-6-oxopyrido[2,3-e]pyrrolo[1,2-a]pyrazin-5(6H)-yl)acetamide]",IC50,"KOR [1]; antagonist, average, read-out: Potency, Target KOR HCS",0.003 µM
same,selectivity for the KOR over both the DOR and MOR,KOR [1]; β-arrestin translocation assays,"over 10,000 fold"
same,IC50,KOP receptor [2],0.33 ± 0.0294 µM
same,IC50,KOR [3],0.12 µM
same,Ki,KOR [4],0.129 µM
same,IC50,KOP receptor [5],0.434 ± 0.154 µM
same,solubility,physchem,12.9 µg/mL

# Reference: patent US9345703B2, “Kappa opioid receptor effectors and uses thereof” (University of Kansas, priority 2011, dated 2016)
